AlphaSeq binding of Ab-14 light chain variants to a spike HR2 peptide

Reference: Engelhart et al. 2022, doi:10.1038/s41597-022-01779-4. File: FLAb, binding data.

Antigen: PDVDLGDISGINAS, a 14-residue peptide of the SARS-CoV-2 spike HR2 region.

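The parent was found by panning a naive human phage display library on the peptide. Variants in AAYL50 differ from the parent at up to three CDR positions; double and triple changes were sampled at random. AlphaSeq pools MATa yeast showing the antibodies with MATalpha yeast showing the peptide. The frequency of each diploid, read from paired DNA barcodes, reflects how well the two displayed proteins bind. Each replicate has its own calibration line, from reference interactions of the BCL2 family. There are three technical replicates.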

Each scFv is VH, the linker GGGGSGGGGSGGGGS, VL, as in the parent Ab-14, and differs from it in the CDRs of the light chain only.
VH: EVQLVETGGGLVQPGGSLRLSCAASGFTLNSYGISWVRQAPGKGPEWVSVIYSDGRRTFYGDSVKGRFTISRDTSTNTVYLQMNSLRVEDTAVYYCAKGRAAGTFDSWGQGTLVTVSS
VL: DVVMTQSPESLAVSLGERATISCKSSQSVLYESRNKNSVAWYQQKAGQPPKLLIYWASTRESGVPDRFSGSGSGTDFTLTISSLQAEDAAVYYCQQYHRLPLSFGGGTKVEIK

The parent's light chain CDRs are KSSQSVLYESRNKNSVA, WASTRES, QQYHRLPLS; each variant's own CDRs replace them letter for letter. Numbers give log10(Kd / nM), so 0 is 1 nM and 3 is 1 µM. Smaller is tighter. "n.d." marks a missing value. The strain was present, yet no cells mated with the target were sequenced in that replicate, which points to weak or no binding. Background: pairings of library AAYL50 with three empty control strains gave a value in 18% of cases (median 4.19, 5th percentile 2.99). Values in that range, when seen in few replicates, are hard to tell from nonspecific mating. For each scFv, signals with the empty controls are counted beside the result, with their mean in brackets.

CDR-L1,CDR-L2,CDR-L3,log10 Kd (nM) by replicate,signal with controls
KSSQSVIYESRNHNSVA,WASTRES,QQYHRLPLS,1.59 / 1.67 / 1.61,0/9
KSSQSVLYESRNKNSVA,VASERES,QQYDRLPLS,3.05 / 3.23 / 3.40,0/9
KSSQSVLQESRLKSSVA,WASTRES,QQYHRLPLS,1.07 / 3.69 / 1.89,0/9
KWSQSVVYESRNKNSVA,WASTRNS,QQYHRLPLS,1.21 / 1.21 / 1.44,1/9 (4.69)
KSSQSVLYESRNKNSVA,WASTPES,QQYHNLPLR,n.d. / n.d. / 3.04,0/9
KSSQEVLYESDNKNSHA,WASTRES,QQYHRLPLS,n.d. / n.d. / n.d.,1/9 (3.74)
TSSQSVLYESRNKNSVA,WASTRET,QQCHRLPLS,1.59 / 1.61 / 1.76,2/9 (4.12)
KSSQSVLYESRSKNSVA,WAHTRES,QQYFRLPLS,1.21 / 1.34 / 1.35,1/9 (4.95)
KSAQSVLYESRNKNSVA,WASTRES,QQYHTLHLS,n.d. / 4.58 / 4.19,3/9 (4.60)
KSSQSVLYESRNKNSVA,WHSTRES,QQYHSLPAS,n.d. / 4.06 / n.d.,3/9 (4.57)
KSSRSVLYESRNKNSVA,WASTRET,QQYHRLPLS,1.90 / 1.59 / 1.63,3/9 (3.91)
KSVQSVLYESRNKNSVA,WASHRES,DQYHRLPLS,n.d. / 5.38 / n.d.,4/9 (5.13)
KSSQSVLYESRNKNSVA,WAETHES,QQYHRLELS,2.70 / 3.23 / 2.91,3/9 (4.46)
KSSQLVLYESRIKNSNA,WASTRES,QQYHRLPLS,n.d. / n.d. / n.d.,0/9
KSSQSVLYESMNKYSVA,WASTRES,PQYHRLPLS,1.12 / 1.27 / 1.30,3/9 (4.24)
KSSRSVLYESRNKNSVA,WASTRES,QQYHRFPLS,n.d. / 5.13 / n.d.,1/9 (4.53)
KSSQSVLEESRNINSVA,WASTRES,QQYHFLPLS,0.45 / 0.84 / 0.78,1/9 (3.59)
KSSQSVLYESRNKNSGA,WNSLRES,QQYHRLPLS,4.49 / 5.40 / n.d.,2/9 (3.35)
KSSQSVLYSSRNKNSVA,IASTRES,QNYHRLPLS,n.d. / 4.57 / n.d.,1/9 (3.10)
KSSQSVLYESININTVA,WASTRES,QQYHRLPLS,n.d. / n.d. / n.d.,1/9 (5.24)
KSSQSVLYESTNKNSVA,PAWTRES,QQYHRLPLS,-0.37 / -0.03 / -0.24,1/9 (2.46)
KSSQSVLYESRNKNSVA,WASTSES,QQYHRRPLS,5.11 / n.d. / 2.51,1/9 (4.62)
KESQSVLYESRNKVSVA,WASTVES,QQYHRLPLS,n.d. / 3.17 / n.d.,1/9 (3.50)
KSSQSVLYESRIKNSVA,WASTREC,QQYHRLPLS,1.84 / 2.17 / 1.14,1/9 (3.37)
KSSQSVLYESRNDNMVA,WASTREF,QQYHRLPLS,4.10 / 3.65 / 4.60,1/9 (4.54)
KSSQSNLYESRNKWSVA,WAITRES,QQYHRLPLS,n.d. / n.d. / 4.29,2/9 (3.79)
KSSQHVLYESRTKNSVA,NASTRES,QQYHRLPLS,n.d. / 2.32 / n.d.,2/9 (4.72)
KSSYSVLYESRNKNSVA,WASTQES,QQYHREPLS,5.01 / 5.56 / 5.35,3/9 (4.58)
KSSQSVLYESRNKNSVA,WLSTRES,QQYHALPLG,n.d. / n.d. / n.d.,0/9
KSSQSVLYESRNHNSVA,WASTRES,FQYHRLPCS,0.57 / 0.73 / 0.62,1/9 (5.57)
KSLQSVGYESRNKNSVA,WASTRES,QQYHRLPLF,1.52 / 1.48 / 1.64,2/9 (4.17)
KSSQSVLYESRIKNGVA,WASTRES,QQYHMLPLS,n.d. / 4.01 / 2.94,0/9
KSSQSLLYESDNKNSVA,KASTRES,QQYHRLPLS,1.62 / 2.79 / 2.15,0/9
YSSQSVLYHSRNKNSVA,WASTRES,QQYHRLPLS,1.49 / 1.72 / 1.86,1/9 (3.18)
KSSQSVLYESRRKNSVA,WVSTRES,QQIHRLPLS,3.43 / 2.13 / 3.57,2/9 (4.99)
KSSQSVLYESRNKNSVA,WASTRES,QQVHRLPLE,n.d. / n.d. / n.d.,0/9
KSSQSVLYESWNKNSVA,WASTIES,QQYNRLPLS,n.d. / 3.26 / n.d.,0/9
KSSQWVLYESRNKNSVA,WASTRES,QQGHRLPLS,n.d. / n.d. / n.d.,0/9
KSVQSVLYESRNKNSVA,FASTEES,QQYHRLPLS,n.d. / 3.54 / n.d.,3/9 (3.61)
KSSQSVLYESRNKNSRA,WASTDES,YQYHRLPLS,n.d. / 2.69 / n.d.,0/9
KSVQSVLYESRNKNSVA,WASTRES,QQYCWLPLS,3.42 / 3.41 / 3.57,5/9 (4.53)
KSSQIVLYESRNKNSVA,WASTRFS,CQYHRLPLS,n.d. / n.d. / n.d.,1/9 (4.42)
KSSQSVLYESRNKNSVT,WASTRES,SQYHRVPLS,n.d. / n.d. / n.d.,0/9
KSSQSVLYESRNKNSVA,WASTRVS,QTYHRLPDS,1.82 / 1.50 / 1.75,3/9 (4.04)
KSSQSVLYESRNKNSVA,WMSTRES,QQYHRLPLS,3.92 / n.d. / n.d.,2/9 (4.16)
KSSQSVLYELRTKNSVA,WASTRES,QQYHRLPQS,n.d. / n.d. / n.d.,0/9
KSSQSFLYWSRNKNSVA,WASPRES,QQYHRLPLS,n.d. / n.d. / n.d.,0/9